Test [1] deals with T1, NOPr (Homo sapiens, UniProt P41146). In words: TR-FRET equilibrium saturation binding, Lumi4Tb-SNAP-NOPr CHO membranes. The following applies: NOPr vs MOPr, DOPr, KOPr. How it is done: The levels of specific binding (total – nonspecific) were calculated and used to determine the dissociation constant (K D) as a measure of affinity. Specific binding curves are shown in Supporting Figure S2. […] Nonetheless, both ligand high affinity and low background signal are promising properties for fluorescence-based studies at the NOPr, enabling low concentrations to be used and improving signal-to-noise ratio. To further investigate the binding characteristics 13g-h, kinetic studies were carried out.
For 13g-h, the homogeneous TR-FRET (HTRF) ratio [(acceptor λem (665 nM)/donor λem (620 nM) × 10000)] is plotted against ligand concentration (nM) for the total binding (solid circle) and nonspecific binding (NSB) (hollow circle). Kinetic binding of (c) 13g and (d) 13h to Lumi4-Tb SNAP-NOPr-CHO membranes was measured over 15 min to determine the NOPr Ligand kinetic parameters in Table . For each concentration applied (0–50 nM), the specific labeling (total-NSB) HTRF ratio × 10,000 is plotted against time (minutes). For end point saturation binding assays, data represent the mean ± SEM of n = 3 experiments performed in duplicate, and for kinetic binding studies, all data represent the mean of n = 3 experiments. […]

Amino acid sequences for entries named in this document (tags omitted). A change or cut given only in a name is not applied to a line headed by its entry.
UniProt P41146: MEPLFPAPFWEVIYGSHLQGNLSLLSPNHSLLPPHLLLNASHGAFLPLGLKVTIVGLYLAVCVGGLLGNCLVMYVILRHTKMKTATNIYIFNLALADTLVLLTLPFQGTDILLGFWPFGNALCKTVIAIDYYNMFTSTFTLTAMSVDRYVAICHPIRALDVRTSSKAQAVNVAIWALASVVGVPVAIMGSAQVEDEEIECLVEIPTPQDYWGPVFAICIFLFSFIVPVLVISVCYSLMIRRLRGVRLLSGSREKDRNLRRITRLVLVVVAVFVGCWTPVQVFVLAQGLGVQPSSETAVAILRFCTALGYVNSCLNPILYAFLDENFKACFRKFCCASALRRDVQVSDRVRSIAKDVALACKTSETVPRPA

The target in test [2] is T1, NOPr. In words: TR-FRET kinetic binding, Lumi4-Tb-SNAP-NOPr-CHO membranes. How it is done: For 13g-h, the homogeneous TR-FRET (HTRF) ratio [(acceptor λem (665 nM)/donor λem (620 nM) × 10000)] is plotted against ligand concentration (nM) for the total binding (solid circle) and nonspecific binding (NSB) (hollow circle). Kinetic binding of (c) 13g and (d) 13h to Lumi4-Tb SNAP-NOPr-CHO membranes was measured over 15 min to determine the NOPr Ligand kinetic parameters in Table . For each concentration applied (0–50 nM), the specific labeling (total-NSB) HTRF ratio × 10,000 is plotted against time (minutes). For end point saturation binding assays, data represent the mean ± SEM of n = 3 experiments performed in duplicate, and for kinetic binding studies, all data represent the mean of n = 3 experiments.
Measurements were taken over 15 min, until a steady state was achieved, and data were globally fitted to a model to derive parameters provided in Table . […] Importantly, these interactions are sufficient for high affinity binding, while residence time is not excessively long, making the ligands well-suited as tracers for performing accurate binding experiments and kinetic studies on unlabeled NOPr ligands.
All ligands were prepared in TR-FRET buffer, consisting of Hanks’ Balanced Salt Solution (Sigma-Aldrich H6648) (KCl 5 mM, KH2PO4 0.4 mM, NaHCO3 4 mM, NaCl 137 mM, Na2HPO4 0.3 mM), Pluronic-F127 (0.02% w/v), DMSO (1% v/v), and glucose (1 mg.mL^–1), adjusted to pH 7.4. Membrane aliquots were thawed on ice prior to use, and membrane suspensions [membrane (0.05 μg.μL^–1), Gpp(NH)p (100 μM), and saponin (50 μg.mL^–1)] were prepared in TR-FRET buffer. To ensure homogeneity, the membrane suspension was passed through a 27-gauge needle before use. Measurements were made in low-binding 384-well optiplates (PerkinElmer) on a PHERAstar (BMG Labtech) plate reader using the HTRF module [337 nm excitation with dual emission detection at 620 nm (terbium cryptate donor) and 665 nm emission (fluorescent ligand acceptor)] at a focal height of 11.4 mm. […]

For test [3], the target named is T1, NOPr. Put plainly: TR-FRET saturation binding of 13h in Na+/Gpp(NH)p or NMDG buffer. The method, then: To investigate the effect of Na^+ and guanine nucleotides on competition binding experiments, as discussed in Section , we decided to perform competition binding experiments in the presence (Figure a) and absence (Figure b) of 100 mM Na^+ ions, which are known to be a negative allosteric modulator of many GPCRs , and a nonhydrolyzable form of guanine triphosphate, Gpp(NH)p (100 mM). To maintain an equivalent ionic strength in the Na^+ free condition, 100 mM of the organic cation N-methyl-D-glucamine (NMDG) was included in the buffer.
Saturation and competition binding experiments were performed as previously described using different buffer conditions. In the sodium and Gpp(NH)-p, free condition experiments were carried out in buffer containing (20 mM HEPES, 100 mM NMDG, 6 mM MgCl2, 1 mM EGTA, and 1 mM EDTA, pH 7.4) and in the sodium and Gpp(NH)-p containing condition buffer containing (20 mM HEPES, 100 mM NaCl, 6 mM MgCl2, 1 mM EGTA, and 1 mM EDTA, pH 7.4) with 100 μM Gpp(NH)-p. […] For saturation experiments, increasing concentrations of 13h (0–400 nM) were used.
Gpp(NH)p (100 µM) + NMDG (100 mM) […]
Figure S4. TR-FRET saturation binding experiments to characterize the afKinity of Kluorescent ligand 13h in
buffers containing a) 100 mM Na+ and 100 mM Gpp(NH)p or b) 100 mM NMDG. […]
circle) and absence (total-binding) (hollow circle) of SB612111 was assessed after 2 hrs at 37° C. […]

Where only a bound is given, the exact number is not on record here.

As usually defined, the koff is a measure of how fast the partners let go of each other. As a reminder, the kon is a measure of how fast the partners come together. The low end stands for slower complex formation, the high end for faster complex formation. The term Kd denotes the concentration at which binding is half-saturated. Regarding `CN1/C(=C/C=C/C=C/C2=[N+](CCCCCC(=O)NCCOc3ccc(CN4CCC[C@@H]4C(=O)NCCCN4CCC5(CC4)OCc4ccccc45)cc3)c3ccc(S(=O)(=O)[O-])cc3C2(C)C)C(C)(C)c2cc(S(=O)(=O)[O-])ccc21.[K+]` [13h, Potassium 1-(6-((2-(4-(((R)-2-((3-(3H-Spiro[isobenzofuran-1,4′-piperidin]-1′-yl)propyl)carbamoyl)pyrrolidin-1-yl)methyl)phenoxy)ethyl)amino)-6-oxohexyl)-3,3-dimethyl-2-((1E,3E)-5-((E)-1,3,3-trimethyl-5-sulfonatoindolin-2-ylidene)penta-1,3-dien-1-yl)-3H-indol-1-ium-5-sulfonate], the “selectivity over the other opioid receptors” value in test [1] is over 490 fold. Besides, the “K on of 13h relative to 13g” value in test [2] is over 7.7 fold. In test [2] (0–50 nM, over 15 min), this compound had a koff of 0.00233 s⁻¹ and a kon of 400000 M⁻¹ s⁻¹. For the same compound, the “K D in Na+ and Gpp(NH)p condition relative to NMDG condition” value in test [3] is reported as “approximately 2 fold”. The Kd in test [3] (100 mM Na+, 100 μM Gpp(NH)p) was 8 nM.
